Reference: ChEMBL document CHEMBL3639086, “Heterocyclic inhibitors of glutaminase” (2013)

Target: T1, Glutaminase kidney isoform, mitochondrial (Homo sapiens, UniProt O94925)
T1 sequence (O94925 whole entry): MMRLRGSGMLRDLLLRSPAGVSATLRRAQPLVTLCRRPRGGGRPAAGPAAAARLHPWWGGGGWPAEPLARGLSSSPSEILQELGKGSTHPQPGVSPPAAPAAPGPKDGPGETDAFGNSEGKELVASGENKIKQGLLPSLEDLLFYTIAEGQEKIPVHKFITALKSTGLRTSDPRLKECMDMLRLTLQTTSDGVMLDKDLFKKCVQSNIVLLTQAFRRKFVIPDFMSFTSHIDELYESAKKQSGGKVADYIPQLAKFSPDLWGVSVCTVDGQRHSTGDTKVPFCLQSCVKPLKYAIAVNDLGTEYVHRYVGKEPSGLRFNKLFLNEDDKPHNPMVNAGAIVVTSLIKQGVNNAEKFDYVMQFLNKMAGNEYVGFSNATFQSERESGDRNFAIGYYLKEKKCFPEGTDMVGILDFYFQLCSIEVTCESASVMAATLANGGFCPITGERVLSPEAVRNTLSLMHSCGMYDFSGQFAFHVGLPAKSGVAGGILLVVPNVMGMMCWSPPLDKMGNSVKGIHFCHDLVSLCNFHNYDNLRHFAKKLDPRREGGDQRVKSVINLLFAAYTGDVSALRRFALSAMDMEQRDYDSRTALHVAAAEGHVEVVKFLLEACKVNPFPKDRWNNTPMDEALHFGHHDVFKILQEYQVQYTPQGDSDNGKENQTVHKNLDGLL

CCOC(=O)NC(C)c1cccc(CC(=O)Nc2ccc(CCCCc3nnc(NC(=O)Cc4ccccc4)s3)nn2)c1 (stereo unspecified)
IC50: 10 nM
